These results are taken from paper PMC12299470, “Selection of an Optimal Metabolic Model for Accurately Predicting the Hepatic Clearance of Albumin-Binding-Sensitive Drugs” (Pharmaceuticals, 2025).

Details of series [1]: method as in EMBL-EBI database. Conditions: acidic or neutral; ref EMBL-EBI database; cited from earlier work.
In series [2] the test system is isolated perfused rat liver. Conditions: male, Sprague-Dawley.

On to `CN1C(=O)CN=C(c2ccccc2)c2cc(Cl)ccc21` [Diazepam], for which the Class entry in series [1] was “N”.

In the case of `O=C(O)Cc1ccccc1Nc1c(Cl)cccc1Cl` [Diclofenac], the “CLint, MWSM” value in series [2] turned out to be 13.50.
